Results reported in patent US20240360179A1, “STAPLED PEPTIDES AND METHODS THEREOF” (FOG PHARMACEUTICALS, INC., priority 2021, published 2024).
Like-named read-outs stand apart in the source and are kept apart here.

The chains behind the UniProt entries cited, without tags or fusion partners. Residues count along the entry.
UniProt P35222, whole entry: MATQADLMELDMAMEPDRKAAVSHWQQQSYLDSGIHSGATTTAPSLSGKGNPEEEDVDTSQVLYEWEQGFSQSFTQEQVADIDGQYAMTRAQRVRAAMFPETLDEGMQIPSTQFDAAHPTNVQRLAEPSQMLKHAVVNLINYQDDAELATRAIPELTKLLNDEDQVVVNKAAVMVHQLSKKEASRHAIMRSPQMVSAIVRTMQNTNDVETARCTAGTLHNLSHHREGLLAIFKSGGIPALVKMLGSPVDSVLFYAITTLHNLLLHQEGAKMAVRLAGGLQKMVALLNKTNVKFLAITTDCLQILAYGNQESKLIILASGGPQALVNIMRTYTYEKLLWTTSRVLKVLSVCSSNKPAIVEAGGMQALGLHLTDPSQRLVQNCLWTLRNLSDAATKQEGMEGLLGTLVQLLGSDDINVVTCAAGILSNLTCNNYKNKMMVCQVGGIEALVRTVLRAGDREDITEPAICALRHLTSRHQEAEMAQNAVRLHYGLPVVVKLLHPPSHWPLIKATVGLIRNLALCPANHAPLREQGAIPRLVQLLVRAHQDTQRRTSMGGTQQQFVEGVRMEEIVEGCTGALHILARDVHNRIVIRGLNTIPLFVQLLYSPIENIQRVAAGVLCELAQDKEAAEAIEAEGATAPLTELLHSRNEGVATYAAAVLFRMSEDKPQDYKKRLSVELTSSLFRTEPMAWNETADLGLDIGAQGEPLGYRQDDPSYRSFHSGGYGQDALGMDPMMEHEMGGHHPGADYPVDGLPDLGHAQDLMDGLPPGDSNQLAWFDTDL
UniProt P35222, 2-781: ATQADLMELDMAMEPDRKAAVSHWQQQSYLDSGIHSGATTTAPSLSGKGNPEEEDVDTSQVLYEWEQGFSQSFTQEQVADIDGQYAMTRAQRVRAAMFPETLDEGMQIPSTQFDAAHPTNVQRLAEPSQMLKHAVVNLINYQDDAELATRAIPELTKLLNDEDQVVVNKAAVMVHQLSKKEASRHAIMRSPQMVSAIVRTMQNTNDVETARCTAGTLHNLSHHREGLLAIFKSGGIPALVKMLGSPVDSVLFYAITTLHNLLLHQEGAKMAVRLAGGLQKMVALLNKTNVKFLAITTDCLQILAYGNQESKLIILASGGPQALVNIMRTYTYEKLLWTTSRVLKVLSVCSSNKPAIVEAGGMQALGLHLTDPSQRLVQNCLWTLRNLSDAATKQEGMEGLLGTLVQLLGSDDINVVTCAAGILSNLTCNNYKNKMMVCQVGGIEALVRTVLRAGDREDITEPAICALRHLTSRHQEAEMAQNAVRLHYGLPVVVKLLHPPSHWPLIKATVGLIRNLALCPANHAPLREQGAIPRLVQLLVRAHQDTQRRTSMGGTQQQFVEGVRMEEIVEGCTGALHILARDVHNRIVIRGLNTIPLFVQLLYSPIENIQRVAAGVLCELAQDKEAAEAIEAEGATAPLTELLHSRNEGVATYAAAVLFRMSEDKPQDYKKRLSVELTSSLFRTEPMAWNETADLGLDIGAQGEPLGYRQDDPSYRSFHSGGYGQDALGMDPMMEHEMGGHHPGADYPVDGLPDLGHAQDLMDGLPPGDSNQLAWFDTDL

Experiments:
[1] = molecular target: T1, full-length B-Catenin (Uniprot ID P35222) (Homo sapiens, UniProt P35222); assay type: binding
T1 construct: 10 nM full-length B-Catenin (Uniprot ID P35222)

[2] = molecular target: TCF/LEF luciferase reporter in DLD1 cells (Homo sapiens, UniProt P35222); assay: TCF reporter assay in DLD1 cells (4% or 20% FBS); assay type: cell-based
[3] = molecular target: beta-catenin/TCF4 interaction (Homo sapiens, UniProt P35222); assay type: cell-based; design: host or cells: HEK293; settings: read-out: NanoBRET Abs IC50
[4] = competition fluorescence polarization, read-out: beta-Catenin FP IC50
[5] = read-out: DLD1 4% Abs IC50, DLD1 reporter, 4% FBS
[6] = read-out: beta-catenin TCF4 competition FP assay IC50
[7] = read-out: DLD1 4% Abs IC50, DLD1 TCF reporter, 4% FBS

| Substance | IC50 [1, 4] | IC50 [2, 5] | IC50 [3] | IC50 [1, 6] | IC50 ([2]; read-out: beta-catenin TCF4 DLD1 cell reporter assay IC50) | IC50 [2, 7] |
| --- | --- | --- | --- | --- | --- | --- |
| Ac-PL3-Asp-Npg-B5-Asp-3COOHF-Aib-Ala-Phe-Lys*3-PyrS2-3Thi-BztA-GlnR*3-Leu-Ser-[mPEG8]-Lys-NH2 [I-1820] | < 50 nM | 1000 to 5000 nM | 1500 to 3000 nM |  |  |  |
| Ac-PL3-Asp-Npg-B5-Asp-3COOHF-Aib-Ala-Phe-Lys*3-PyrS2-3Thi-BztA-GlnR*3-Phe-NH2 [I-722] | < 50 nM | ≤ 1000 nM | 1500 to 3000 nM |  |  |  |
| Ac-PL3-Asp-Npg-B5-Asp-3COOHF-Aib-Ala-Phe-Lys*3-PyrS2-3Thi-BztA-GlnR*3-Pro-NH2 [I-719] | < 50 nM | 1000 to 5000 nM | < 1500 nM |  |  |  |
| Ac-PL3-Asp-Npg-B5-Asp-3COOHF-Aib-Ala-Phe-Lys*3-PyrS2-3Thi-BztA-GlnR*3-Ser-NH2 [I-721] | < 50 nM | 1000 to 5000 nM | 1500 to 3000 nM |  |  |  |
| Ac-PL3-Asp-Npg-B5-Asp-3COOHF-Aib-Ala-Phe-Lys*3-PyrS2-3Thi-BztA-GlnR*3-Val-Glu-[mPEG8]-Lys-NH2 [I-1817] | < 50 nM | 1000 to 5000 nM | 3000 to 10000 nM |  |  |  |
| Ac-PL3-Asp-Npg-B5-Asp-3COOHF-Aib-Ala-Phe-Lys*3-PyrS2-3Thi-BztA-GlnR*3-dPro-NH2 [I-720] | < 50 nM | 1000 to 5000 nM | 3000 to 10000 nM |  |  |  |
| Ac-PL3-Asp-Npg-B5-Asp-3COOHF-Aib-Ala-Phe-[Red]Cys-PyrS2-3Thi-BztA-Pen-Ala-NH2 [I-1457] | 50 to 200 nM | 1000 to 5000 nM |  |  |  |  |
| Ac-PL3-Asp-Npg-B5-Asp-3COOHF-Aib-Ala-Phe-[Red]hCys-PyrS2-3Thi-BztA-Cys-Ala-NH2 [I-1280] | < 50 nM | 1000 to 5000 nM |  |  |  |  |
| Ac-PL3-Asp-Npg-B5-Asp-3COOHF-Aib-Ala-Phe-[m5Meb]Cys-PyrS2-3Thi-BztA-Cys-Ala-NH2 [I-1365] | < 50 nM | > 5000 nM |  | 42 nM |  |  |
| Ac-PL3-Asp-Npg-B5-Asp-3COOHF-Aib-Ala-Phe-[m5Meb]hCys-PyrS2-3Thi-BztA-Cys-Ala-NH2 [I-1366] | 200 to 750 nM | > 5000 nM |  |  |  |  |
| Ac-PL3-Asp-Npg-B5-Asp-3COOHF-Aib-Ala-Phe-[m50Meb]Cys-PyrS2-3Thi-BztA-Pen-Ala-NH2 [I-1456] | 50 to 200 nM | > 5000 nM |  |  |  |  |
| Ac-PL3-Asp-Npg-B5-Asp-3COOHF-Aib-Ala-Phe-[mPyr]Cys-PyrS2-3Thi-BztA-Pen-Ala-NH2 [I-1454] | < 50 nM | 1000 to 5000 nM |  |  |  |  |
| Ac-PL3-Asp-Npg-B5-Asp-3COOHF-Aib-Ala-Phe-[mXyl]Cys-PyrS2-3Thi-BztA-Cys-Ala-NH2 [I-1272] | < 50 nM |  |  | 15 nM | 5500 nM |  |
| Ac-PL3-Asp-Npg-B5-Asp-TfeGA-Aib-Ala-Phe-Lys*3-PyrS2-2F3MeF-BztA-GlnR*3-Ala-NH2 [I-121] | < 50 nM |  | 1500 to 3000 nM |  |  | 1000 to 5000 nM |
| Ac-PL3-Asp-Npg-B5-Asp-TfeGA-Val-Ala-Phe-Lys*3-PyrS2-2F3MeF-BztA-GlnR*3-Ala-NH2 [I-125] | < 50 nM |  | > 10000 nM |  |  | 1000 to 5000 nM |
| Ac-S5-Ala-Asp-Npg-B5-Asp-3COOHF-Aib-Ala-Phe-Leu-[4Abu]DapAc7-3thi-BztA-Ala-GlnR*3-NH2 [I-1299] | 50 to 200 nM | > 5000 nM |  |  |  |  |
| Ac-S5-Glu-Asp-Npg-B5-Asp-3COOHF-Aib-Ala-Phe-Lys*3-PyrS2-Phe-34ClF-GlnR*3-NH2 [I-1463] | < 50 nM | 1000 to 5000 nM | > 10000 nM |  |  |  |
| Ac-S5-Val-Asp-Npg-B5-Asp-3COOHF-Aib-Ala-Phe-Lys*3-PyrS2-Phe-34ClF-GlnR*3-NH2 [I-1466] | < 50 nM | 1000 to 5000 nM | > 10000 nM |  |  |  |
| Ac-S6-Ala-Asp-Npg-B5-Asp-3COOHF-Aib-Ala-Phe-Leu-[4Abu]DapAc7-3thi-BztA-Ala-GlnR*3-NH2 [I-1300] | 50 to 200 nM | > 5000 nM |  |  |  |  |
| Ac-S6-Ala-Asp-Npg-B5-Asp-3COOHF-Aib-Ala-Phe-Lys*3-PyrS2-Phe-34ClF-GlnR*3-NH2 [I-1468] | < 50 nM | > 5000 nM |  |  |  |  |
| Ac-S6-Glu-Asp-Npg-B5-Asp-3COOHF-Aib-Ala-Phe-Lys*3-PyrS2-Phe-34ClF-GlnR*3-NH2 [I-1467] | < 50 nM | 1000 to 5000 nM |  |  |  |  |
| Ac-S6-Pro-Asp-Npg-B5-Asp-3COOHF-Aib-Ala-Phe-Lys*3-PyrS2-Phe-34ClF-GlnR*3-NH2 [I-1452] | < 50 nM | 1000 to 5000 nM | 3000 to 10000 nM |  |  |  |
| Ac-S6-Val-Asp-Npg-B5-Asp-3COOHF-Aib-Ala-Phe-Lys*3-PyrS2-Phe-34ClF-GlnR*3-NH2 [I-1464] | < 50 nM | 1000 to 5000 nM |  |  |  |  |
| NPyroR3-Asp-Ala-B4-Asp-3COOHF-Aib-Ala-Phe-Lys*3-PyrS3-3Thi-BztA-GlnR*3-Ala-NH2 [I-1499] | < 50 nM | > 5000 nM |  |  |  |  |
| NPyroR3-Asp-Ala-B5-Asp-3COOHF-Aib-Ala-Phe-Lys*3-PyrS2-3Thi-BztA-GlnR*3-Ala-NH2 [I-1500] | < 50 nM | > 5000 nM |  |  |  |  |
